Measured values taken from PubChem BioAssay (NCI).
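Five concentrations, 48 hours, 96-well plates. Here, GI50 denotes the concentration required for 50% inhibition of growth. TGI is the concentration that stops growth completely.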

What was measured:
Experiment in all cases: DTP human tumour cell line panel, 48 h
PC-3 prostate = test system: PC-3 prostate
T-47D breast = test system: T-47D breast
A549 NSCLC = test system: A549 NSCLC
MALME-3M melanoma = test system: MALME-3M melanoma
U251 CNS = test system: U251 CNS
MCF7 breast = test system: MCF7 breast
KM12 colon = test system: KM12 colon
LOX IMVI melanoma = test system: LOX IMVI melanoma
HL-60(TB) leukemia = test system: HL-60(TB) leukemia
OVCAR-5 ovarian = test system: OVCAR-5 ovarian
RXF 393 renal = test system: RXF 393 renal
K-562 leukemia = test system: K-562 leukemia
ACHN renal = test system: ACHN renal
HCT-15 colon = test system: HCT-15 colon
BT-549 breast = test system: BT-549 breast
NCI-H23 lung = test system: NCI-H23 lung
CCRF-CEM leukemia = test system: CCRF-CEM leukemia
UACC-62 melanoma = test system: UACC-62 melanoma
EKVX NSCLC = test system: EKVX NSCLC
M14 melanoma = test system: M14 melanoma
SNB-19 CNS = test system: SNB-19 CNS
UO-31 renal = test system: UO-31 renal
HT29 colon = test system: HT29 colon
IGROV1 ovarian = test system: IGROV1 ovarian
COLO 205 colon = test system: COLO 205 colon
SK-MEL-5 melanoma = test system: SK-MEL-5 melanoma
NCI-H226 lung = test system: NCI-H226 lung
MDA-MB-435 = test system: MDA-MB-435
A498 renal = test system: A498 renal
NCI-H460 lung = test system: NCI-H460 lung
TK-10 renal = test system: TK-10 renal
NCI-H522 lung = test system: NCI-H522 lung
SF-268 CNS = test system: SF-268 CNS
CAKI-1 renal = test system: CAKI-1 renal
SF-539 CNS = test system: SF-539 CNS
NCI-H322M lung = test system: NCI-H322M lung
786-0 renal = test system: 786-0 renal
OVCAR-3 ovarian = test system: OVCAR-3 ovarian
SK-OV-3 ovarian = test system: SK-OV-3 ovarian
HCT-116 colon = test system: HCT-116 colon
SN12C renal = test system: SN12C renal
SW-620 colon = test system: SW-620 colon
NCI/ADR-RES ovarian = test system: NCI/ADR-RES ovarian
HOP-62 NSCLC = test system: HOP-62 NSCLC
HCC-2998 colon = test system: HCC-2998 colon
HS 578T breast = test system: HS 578T breast
RPMI-8226 leukemia = test system: RPMI-8226 leukemia
UACC-257 melanoma = test system: UACC-257 melanoma
HOP-92 NSCLC = test system: HOP-92 NSCLC
SK-MEL-2 melanoma = test system: SK-MEL-2 melanoma
OVCAR-8 ovarian = test system: OVCAR-8 ovarian
SK-MEL-28 melanoma = test system: SK-MEL-28 melanoma
DU-145 prostate = test system: DU-145 prostate
SR leukemia = test system: SR leukemia
MDA-MB-231 breast = test system: MDA-MB-231 breast

## O=C(Nc1cccc2ccccc12)N(CCBr)CCBr
PC-3 prostate
  GI50: 12.4 µM
  TGI: 33.2 µM
T-47D breast
  GI50: 7.7 µM
  TGI: 22.5 µM
A549 NSCLC
  GI50: 40.1 µM
  TGI: > 100 µM
MALME-3M melanoma
  GI50: 16.9 µM
  TGI: 36 µM
U251 CNS
  GI50: 13 µM
  TGI: 41.7 µM
MCF7 breast
  GI50: 13.9 µM
  TGI: 53.9 µM
KM12 colon
  GI50: 19.8 µM
  TGI: 43.8 µM
LOX IMVI melanoma
  GI50: 17.8 µM
  TGI: 47.3 µM
HL-60(TB) leukemia
  GI50: 17.7 µM
  TGI: 43 µM
OVCAR-5 ovarian
  GI50: 30 µM
  TGI: > 100 µM
RXF 393 renal
  GI50: 16.4 µM
  TGI: 35.1 µM
K-562 leukemia
  GI50: 13.4 µM
  TGI: 41.6 µM
ACHN renal
  GI50: 2.86 µM
  TGI: 19.2 µM
HCT-15 colon
  GI50: 25.7 µM
  TGI: 71.7 µM
BT-549 breast
  GI50: 19.4 µM
  TGI: 41.2 µM
NCI-H23 lung
  GI50: 28.9 µM
  TGI: 91.6 µM
CCRF-CEM leukemia
  GI50: 30.9 µM
  TGI: > 100 µM
UACC-62 melanoma
  GI50: 13.4 µM
  TGI: 29.2 µM
EKVX NSCLC
  GI50: 27 µM
  TGI: > 100 µM
M14 melanoma
  GI50: 51.1 µM
  TGI: > 100 µM
SNB-19 CNS
  GI50: 15.8 µM
  TGI: 39.5 µM
UO-31 renal
  GI50: 18.6 µM
  TGI: 43.6 µM
HT29 colon
  GI50: 18.3 µM
  TGI: 45 µM
IGROV1 ovarian
  GI50: 21.1 µM
  TGI: 59.2 µM
COLO 205 colon
  GI50: 17.8 µM
  TGI: 43.5 µM
SK-MEL-5 melanoma
  GI50: 11.2 µM
  TGI: 29.5 µM
NCI-H226 lung
  GI50: 11.7 µM
  TGI: 31.8 µM
MDA-MB-435
  GI50: 27.2 µM
  TGI: 59.5 µM
A498 renal
  GI50: 18.8 µM
  TGI: 48.8 µM
NCI-H460 lung
  GI50: 19 µM
  TGI: 53.4 µM
TK-10 renal
  GI50: 27.3 µM
  TGI: 70.2 µM
NCI-H522 lung
  GI50: 18 µM
  TGI: 39.9 µM
SF-268 CNS
  GI50: 17.8 µM
  TGI: 42 µM
CAKI-1 renal
  GI50: 25.7 µM
  TGI: 61.9 µM
SF-539 CNS
  GI50: 15.1 µM
  TGI: 37.8 µM
NCI-H322M lung
  GI50: 35 µM
  TGI: > 100 µM
786-0 renal
  GI50: 26.6 µM
  TGI: 77.7 µM
OVCAR-3 ovarian
  GI50: 33.6 µM
  TGI: > 100 µM
SK-OV-3 ovarian
  GI50: 42.8 µM
  TGI: 68.9 µM
HCT-116 colon
  GI50: 43.9 µM
  TGI: > 100 µM
SN12C renal
  GI50: 16.4 µM
  TGI: 34.5 µM
SW-620 colon
  GI50: 27.6 µM
  TGI: > 100 µM
NCI/ADR-RES ovarian
  GI50: 35.2 µM
  TGI: > 100 µM
HOP-62 NSCLC
  GI50: 17.2 µM
  TGI: > 100 µM
HCC-2998 colon
  GI50: 25.1 µM
  TGI: 54 µM
HS 578T breast
  GI50: 18.5 µM
  TGI: 36.8 µM
RPMI-8226 leukemia
  GI50: 20.9 µM
  TGI: > 100 µM
UACC-257 melanoma
  GI50: 17.5 µM
  TGI: 49 µM
HOP-92 NSCLC
  GI50: 12 µM
  TGI: 32.3 µM
SK-MEL-2 melanoma
  GI50: 28.6 µM
  TGI: 62.7 µM
OVCAR-8 ovarian
  GI50: 26.9 µM
  TGI: > 100 µM
SK-MEL-28 melanoma
  GI50: 21.2 µM
  TGI: 41.6 µM
DU-145 prostate
  GI50: 25 µM
  TGI: > 100 µM
SR leukemia
  GI50: 11.7 µM
  TGI: 67.9 µM
MDA-MB-231 breast
  GI50: 19.9 µM
  TGI: 50 µM
